The text below walks through data of US4053604A (priority 1975, dated 1977).

The nature of the series: double-blind cross-over neuroleptanesthesia study in dogs (neuroleptic, fentanyl, nitrous oxide-oxygen). The following applies: for Average Score Neuroleptanesthesia, Average / Extubation Time, Average / Intubation Time, Average / Duration of Anesthesia Time, Average: average of dogs; for Average Score Neuroleptanesthesia, Average: higher score = better; for Average Score Neuroleptanesthesia, Average / Duration of Anesthesia Time, Average: neuroleptic 200 μg/kg i.v.; for Extubation Time, Average / Intubation Time, Average: neuroleptic 200 μg/kg i.v. + fentanyl + N2O-O2; for Duration of Anesthesia Time, Average: time animals regained righting reflex.

Where [1] appears, read: versus droperidol (FIGS. 4 and 5), in words.

For the compound `O=C(CCCN1CC=C(n2c(=O)[nH]c3ccccc32)CC1)c1ccc(F)cc1` [droperidol, reference compound], the “Average Score Neuroleptanesthesia, Average” value is reported as 3.3; the “Extubation Time, Average” value came to 78.6 min; the “Intubation Time, Average” value was found to be 20.21 min; the “Duration of Anesthesia Time, Average” value is 79.5 min.

For the compound `CC(C)[C@@]1(O)CCN2C[C@@H]3c4ccccc4CCc4cccc(c43)[C@H]2C1` [listing 1 of 2 here], the “Average Score Neuroleptanesthesia, Average” value was 3.2; the “Extubation Time, Average” value is 77.0 min; the “Intubation Time, Average” value came to 20.57 min; the “Duration of Anesthesia Time, Average” value worked out at 78.0 min. Further, under “200 μg/kg intravenously, versus droperidol at the same dose, in words”, the “effectiveness in inducing neurolepsy and in supplementing nitrous oxide anesthesia” value was “as effective as droperidol”.

As to `CC(C)[C@@]1(O)CCN2C[C@@H]3c4ccccc4CCc4cccc(c43)[C@H]2C1` [listing 2 of 2 here], under setting [1], the “Changes in pulse rate” value is “not statistically different”, the “Changes in rectal temperature” value was “not statistically different” and the “Changes in respiratory rate” value is given as “not statistically different”.
